Reference: paper PMC3427755 (Organic & biomolecular chemistry, 2012)

Sequences of proteins named here, by UniProt entry; tags and fusion partners are left off. Residues count along the entry.
UniProt P15056, 433-726 V600E: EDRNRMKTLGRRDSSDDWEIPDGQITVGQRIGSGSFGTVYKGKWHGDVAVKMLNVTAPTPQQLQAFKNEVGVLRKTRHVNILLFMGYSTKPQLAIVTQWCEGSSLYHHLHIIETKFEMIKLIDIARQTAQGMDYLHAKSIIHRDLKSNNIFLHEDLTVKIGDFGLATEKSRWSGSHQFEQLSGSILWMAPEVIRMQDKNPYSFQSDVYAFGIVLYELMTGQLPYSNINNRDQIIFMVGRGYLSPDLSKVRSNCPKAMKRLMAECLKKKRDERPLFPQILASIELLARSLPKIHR

Target: B-Raf^V600E (Homo sapiens, UniProt P15056, V600E)
Assay: In vitro B-Raf kinase assay
Type: biochemical

## O=C1NC(=S)NC(=O)C1=Cc1ccc(-c2ccc(Br)cc2)o1 [Compound 22f, 5-[5-(4-bromo-phenyl)-furan-2ylmethylene]-2-thioxo-dihydro-pyrimidine-4,6-dione]
  improvement in IC50 values compared with the original hit 22: ~5 fold
